Results published in ChEMBL document CHEMBL4673173, “Cyrene(TM) is a green alternative to DMSO as a solvent for antibacterial drug discovery against ESKAPE pathogens” (RSC Med Chem, 2020).
Active and inactive are the calls of the source. The rule behind the calls is not given here.

How the values were obtained:
Staphylococcus aureus [1] = conditions: ATCC 43300
Klebsiella pneumoniae [2] = conditions: 700603
Staphylococcus aureus [3] = conditions: ATCC 43300; remark: listed apart in the source
Enterococcus faecalis [4] = conditions: ATCC 51299
Escherichia coli [5] = conditions: ATCC 25922
Pseudomonas aeruginosa [6] = conditions: ATCC 27893
Acinetobacter baumannii [7] = conditions: ATCC 19606 = CIP 70.34 = JCM 6841
Pseudomonas aeruginosa [8] = conditions: ATCC 27893; remark: listed apart in the source
Escherichia coli [9] = conditions: ATCC 25922; remark: listed apart in the source
Acinetobacter baumannii [10] = conditions: ATCC 19606 = CIP 70.34 = JCM 6841; remark: listed apart in the source
Klebsiella pneumoniae [11] = conditions: 700603; remark: listed apart in the source
Enterococcus faecalis [12] = conditions: ATCC 51299; remark: listed apart in the source

**Q.** How did the MIC80 (Staphylococcus aureus [1]) turn out when COLISTIN SULFATE was run?
**A.** inactive

**Q.** And the MIC80 (Klebsiella pneumoniae [2])?
**A.** 1.6 µM

**Q.** And the MIC80 (Staphylococcus aureus [3])?
**A.** inactive

**Q.** What about the MIC80 (Enterococcus faecalis [4]) of the same sequence?
**A.** inactive

**Q.** And the MIC80 (Escherichia coli [5])?
**A.** 0.78 µM

**Q.** And the MIC80 (Pseudomonas aeruginosa [6])?
**A.** 3.1 µM

**Q.** What about the MIC80 (Acinetobacter baumannii [7]) of the same sequence?
**A.** 1.6 µM

**Q.** What about the MIC80 (Pseudomonas aeruginosa [8]) of the same sequence?
**A.** 3.1 µM

**Q.** And the MIC80 (Escherichia coli [9])?
**A.** 0.78 µM

**Q.** And the MIC80 (Acinetobacter baumannii [10])?
**A.** 1.6 µM

**Q.** And the MIC80 (Klebsiella pneumoniae [11])?
**A.** 1.6 µM

**Q.** What about the MIC80 (Enterococcus faecalis [12]) of the same sequence?
**A.** inactive
